Experimental data as given in patent US9284330B2 (priority 2011, dated 2016).

Protein sequences, listed by entry. Tags and fused reporters are not part of them. Lines headed by an entry give the natural chain unless they say otherwise; changes in a name come on top.
UniProt O42275: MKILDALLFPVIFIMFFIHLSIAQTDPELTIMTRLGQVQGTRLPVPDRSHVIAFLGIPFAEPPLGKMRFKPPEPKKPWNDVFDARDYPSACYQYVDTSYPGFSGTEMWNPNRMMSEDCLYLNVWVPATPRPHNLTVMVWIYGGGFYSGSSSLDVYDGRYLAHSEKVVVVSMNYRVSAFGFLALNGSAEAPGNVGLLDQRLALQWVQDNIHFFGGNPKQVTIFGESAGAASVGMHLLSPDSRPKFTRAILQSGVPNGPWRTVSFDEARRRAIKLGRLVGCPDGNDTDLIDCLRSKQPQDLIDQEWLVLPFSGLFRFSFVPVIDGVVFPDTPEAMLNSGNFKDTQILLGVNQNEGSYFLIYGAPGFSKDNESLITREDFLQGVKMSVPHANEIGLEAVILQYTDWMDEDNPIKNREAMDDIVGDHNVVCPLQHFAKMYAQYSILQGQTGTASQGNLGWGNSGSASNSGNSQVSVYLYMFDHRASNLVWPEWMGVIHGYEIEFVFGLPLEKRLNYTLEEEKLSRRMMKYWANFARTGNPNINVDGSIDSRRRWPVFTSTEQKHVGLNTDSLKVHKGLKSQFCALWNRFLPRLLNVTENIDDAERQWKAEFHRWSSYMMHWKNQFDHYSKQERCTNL

Legend:
acetylcholinesterase = acetylcholinesterase (Electrophorus electricus (Electric eel) (Gymnotus electricus), UniProt O42275); assay: biochemical
L-type Ca2+ channel = assay: Blocking of L-type Ca2+ channel by high content screening analyzer, KCl-induced calcium ion influx in SH-SY5Y cells (Fluo-4-AM)

Row | Compound | IC50 (acetylcholinesterase) | Inhibition rate of KCl-induced calcium ion influx (L-type Ca2+ channel)
1 | COC(=O)C1=C(C)Nc2nc3c(c(N)c2C1c1cccc([N+](=O)[O-])c1)CCCC3Cl (centres unmarked) [Compound S21, 5-amino-9-chloro-2-methyl-4-(3-nitrophenyl)-1,4,6,7,8,9-hexahydrobenzo[b][1,8]nap hthyridine-3-carboxylic acid methyl ester] | 1110 nM | 
2 | COC(=O)C1=C(C)Nc2nc3c(c(N)c2C1c1cccc([N+](=O)[O-])c1)CCC(C)C3 (centres unmarked) [Compound S22, 5-amino-2,8-dimethyl-4-(3-nitrophenyl)-1,4,6,7,8,9-hexahydrobenzo[b][1,8]naphthyridine-3-carboxylic acid methyl ester] |  | 45.06% and 82.60%

Where “and” joins values, the source holds several entries; their conditions need not be identical. Equal entries are not always repeated.
